Values of other authors as cited in patent EP4527389A1, “PROLONGED-RELEASE INJECTABLE COMPOSITIONS FOR USE IN TREATMENT WITH RISPERIDONE TOGETHER WITH CYP2D6 ENZYME INHIBITORS” (Laboratorios Farmacéuticos Rovi S.A., priority 2022, dated 2023).

Chains of the proteins cited; added tags and fusions are not shown.
UniProt P10635, whole entry: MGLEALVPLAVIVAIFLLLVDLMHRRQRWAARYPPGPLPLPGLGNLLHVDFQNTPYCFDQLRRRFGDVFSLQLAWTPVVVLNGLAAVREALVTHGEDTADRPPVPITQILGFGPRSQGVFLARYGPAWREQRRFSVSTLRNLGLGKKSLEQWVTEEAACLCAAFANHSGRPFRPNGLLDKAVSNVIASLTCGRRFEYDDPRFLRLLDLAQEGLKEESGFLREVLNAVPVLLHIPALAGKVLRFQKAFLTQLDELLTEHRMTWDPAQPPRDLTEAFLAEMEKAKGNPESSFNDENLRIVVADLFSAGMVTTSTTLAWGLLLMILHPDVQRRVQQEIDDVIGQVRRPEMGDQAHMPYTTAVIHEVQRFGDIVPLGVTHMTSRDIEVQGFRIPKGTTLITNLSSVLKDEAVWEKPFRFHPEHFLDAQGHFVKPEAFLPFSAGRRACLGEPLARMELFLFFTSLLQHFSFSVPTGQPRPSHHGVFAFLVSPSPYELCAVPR

Molecular target: CYP2D6 (cytochrome P450 2D6) enzyme (Homo sapiens, UniProt P10635)
Conditions: three categories: strong, moderate, weak

## Cc1nc2n(c(=O)c1CCN1CCC(c3noc4cc(F)ccc34)CC1)CCCC2 [Risperidone]
  CYP2D6 enzyme inhibitor category: strong CYP2D6 inhibitors
